Among the data in PMC5332414, “Mycobacterium abscessus subsp. abscessus Is Capable of Degrading Pseudomonas aeruginosa Quinolone Signals” (Frontiers in Microbiology, 2017) are Km and kcat values, retold here.

The subject of the series is CCCCCCCc1[nH]c2ccccc2c(=O)c1O. Kind of series: purified protein. Particulars: apparent, co-substrate O2, 50 mM Tris, 2 mM EDTA, 10% PEG 1500, 4% (v/v) DMSO, pH 8.0, 30°C, natural variant AqdC^II of clinical isolates (strain P13 group).

Broadly, the Km is the concentration of substrate that gives half-maximal velocity. In general, kcat refers to the number of substrate molecules converted per active site and unit of time at saturation. With “AqdC (AqdC^I) (Mycobacteroides abscessus ATCC 19977; A133T/R129P)”, the Km came out at 13.6 ± 1.6 µM and the kcat was determined as 61.0 ± 4.3 s⁻¹.
